Assay results: patent US20160199445A1, “USE OF ARPIN A NEW INHIBITOR OF THE ARP2/3 COMPLEX FOR THE DIAGNOSIS AND TREATMENT OF DISEASES” (CENTRE NATIONAL DE LA RECHERCHE SCIENTIFIQUE, priority 2013, published 2016)

What was measured:
[1] = target: Human full length Arpin (residues 1-226), purified from E. coli, cleaved off GST by TEV protease (human) (UniProt Q7Z6K5); assay: SEC-MALS of the mixture of Arpin and Rac1 loaded with GDP; alone: Arpin 26290 ± 140, Rac1-GDP 28180 ± 170 [table]
[2] = target: Human full length Arpin (residues 1-226), purified from E. coli, cleaved off GST by TEV protease (human) (UniProt Q7Z6K5); assay: SEC-MALS of the mixture of Arpin and Rac1 loaded with GTPγS; alone: Arpin 26290 ± 140, Rac1-GTPγS 28390 ± 150 [table]

With “Untagged Rac1 purified from E. coli, loaded with GDP or GTPγS (from UniProt P63000 1-192)” the Measured mass (g/mol) of the mixture [1] was 27000 g/mol and the Measured mass (g/mol) of the mixture [2] was 26800 g/mol.
